## Membrane permeability of cyclic peptides

Source: CycPeptMPDB (Li et al. 2023), which took these values from Furukawa et al. 2016, doi:10.1021/acs.jmedchem.6b01246.

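Conditions beyond the assay type are not listed; see the original paper. The list need not hold all peptides of the study. Entries at the database's floor value (log10 P of -10) are not listed.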

PAMPA is the parallel artificial membrane permeability assay, which has no cells and reads passive diffusion. P is given in units of 10^-6 cm/s (from log10 values with two decimals); larger means faster passage.

compound,PAMPA (10^-6 cm/s)
CCCC[C@@H]1NC(=O)[C@H](CC(C)C)N(C)C(=O)CN(CCc2cccnc2)C(=O)[C@H](Cc2ccccc2)NC(=O)CN(Cc2ccc(Cl)cc2)C(=O)[C@H]2CCCN2C1=O,0.76
CCCC[C@@H]1NC(=O)[C@H](CC(C)C)N(C)C(=O)CN(CCCN2CCCC2=O)C(=O)[C@H](C)NC(=O)CN(CCCOC(C)C)C(=O)[C@H]2CCCN2C1=O,0.019
CCCC[C@@H]1NC(=O)[C@H](CC(C)C)N(C)C(=O)CN(CCCc2cnn(C)c2)C(=O)[C@H](CC(C)C)NC(=O)CN(CCN2CCOCC2)C(=O)[C@H]2CCCN2C1=O,0.091
CCCC[C@@H]1NC(=O)[C@H](CC(C)C)N(C)C(=O)CN(CCOc2ccccc2)C(=O)[C@H](Cc2ccccc2)NC(=O)CN(CC(C)C)C(=O)[C@H]2CCCN2C1=O,0.47
CCCCCN1CC(=O)N(C)[C@@H](CC(C)C)C(=O)N[C@@H](CCCC)C(=O)N2CCC[C@@H]2C(=O)N(Cc2ccc(Cl)cc2)CC(=O)N[C@@H](Cc2ccccc2)C1=O,0.0091
CCCC[C@@H]1NC(=O)[C@H](CC(C)C)N(C)C(=O)CN(CCCN2CCCC2=O)C(=O)[C@H](Cc2ccccc2)NC(=O)CN(CCCOC(C)C)C(=O)[C@H]2CCCN2C1=O,0.59
CCCC[C@@H]1NC(=O)[C@H](CC(C)C)N(C)C(=O)CN(CC2CCCCC2)C(=O)[C@H](C)NC(=O)CN(Cc2ccccc2Cn2cccn2)C(=O)[C@H]2CCCN2C1=O,10
CCCC[C@@H]1NC(=O)[C@H](CC(C)C)N(C)C(=O)CN(CCCN2CCCC2=O)C(=O)[C@H](Cc2ccc3ccccc3c2)NC(=O)CN(CCC)C(=O)[C@H]2CCCN2C1=O,1.7
CCCC[C@@H]1NC(=O)[C@H](CC(C)C)N(C)C(=O)CN(CCCN2CCCC2=O)C(=O)[C@H](C)NC(=O)CN(CCC)C(=O)[C@H]2CCCN2C1=O,0.011
CCCC[C@@H]1NC(=O)[C@H](CC(C)C)N(C)C(=O)CN(CCCc2cnn(C)c2)C(=O)[C@H](Cc2ccccc2)NC(=O)CN(Cc2ccc3c(c2)OCO3)C(=O)[C@H]2CCCN2C1=O,1.9
CCCC[C@@H]1NC(=O)[C@H](CC(C)C)N(C)C(=O)CN(CC2CCOCC2)C(=O)[C@H](CC(C)C)NC(=O)CN(Cc2ccc(Cl)cc2)C(=O)[C@H]2CCCN2C1=O,6
CCCC[C@@H]1NC(=O)[C@H](CC(C)C)N(C)C(=O)CN(CCOc2ccccc2)C(=O)[C@H](C)NC(=O)CN(CCCOC(C)C)C(=O)[C@H]2CCCN2C1=O,8.7
CCCC[C@@H]1NC(=O)[C@H](CC(C)C)N(C)C(=O)CN(CCOC)C(=O)[C@H](CC(C)C)NC(=O)CN(CC)C(=O)[C@H]2CCCN2C1=O,2.8